Literature values, collected in patent US10449216B2, “Modulating drug effects against metabotropic glutamate receptor with extracellular calcium” (GEORGIA STATE UNIVERSITY RESEARCH FOUNDATION, INC., priority 2013, dated 2019).

Amino acid sequences for entries named in this document (tags omitted). Residues count along the entry.
UniProt P41594, 21-1212: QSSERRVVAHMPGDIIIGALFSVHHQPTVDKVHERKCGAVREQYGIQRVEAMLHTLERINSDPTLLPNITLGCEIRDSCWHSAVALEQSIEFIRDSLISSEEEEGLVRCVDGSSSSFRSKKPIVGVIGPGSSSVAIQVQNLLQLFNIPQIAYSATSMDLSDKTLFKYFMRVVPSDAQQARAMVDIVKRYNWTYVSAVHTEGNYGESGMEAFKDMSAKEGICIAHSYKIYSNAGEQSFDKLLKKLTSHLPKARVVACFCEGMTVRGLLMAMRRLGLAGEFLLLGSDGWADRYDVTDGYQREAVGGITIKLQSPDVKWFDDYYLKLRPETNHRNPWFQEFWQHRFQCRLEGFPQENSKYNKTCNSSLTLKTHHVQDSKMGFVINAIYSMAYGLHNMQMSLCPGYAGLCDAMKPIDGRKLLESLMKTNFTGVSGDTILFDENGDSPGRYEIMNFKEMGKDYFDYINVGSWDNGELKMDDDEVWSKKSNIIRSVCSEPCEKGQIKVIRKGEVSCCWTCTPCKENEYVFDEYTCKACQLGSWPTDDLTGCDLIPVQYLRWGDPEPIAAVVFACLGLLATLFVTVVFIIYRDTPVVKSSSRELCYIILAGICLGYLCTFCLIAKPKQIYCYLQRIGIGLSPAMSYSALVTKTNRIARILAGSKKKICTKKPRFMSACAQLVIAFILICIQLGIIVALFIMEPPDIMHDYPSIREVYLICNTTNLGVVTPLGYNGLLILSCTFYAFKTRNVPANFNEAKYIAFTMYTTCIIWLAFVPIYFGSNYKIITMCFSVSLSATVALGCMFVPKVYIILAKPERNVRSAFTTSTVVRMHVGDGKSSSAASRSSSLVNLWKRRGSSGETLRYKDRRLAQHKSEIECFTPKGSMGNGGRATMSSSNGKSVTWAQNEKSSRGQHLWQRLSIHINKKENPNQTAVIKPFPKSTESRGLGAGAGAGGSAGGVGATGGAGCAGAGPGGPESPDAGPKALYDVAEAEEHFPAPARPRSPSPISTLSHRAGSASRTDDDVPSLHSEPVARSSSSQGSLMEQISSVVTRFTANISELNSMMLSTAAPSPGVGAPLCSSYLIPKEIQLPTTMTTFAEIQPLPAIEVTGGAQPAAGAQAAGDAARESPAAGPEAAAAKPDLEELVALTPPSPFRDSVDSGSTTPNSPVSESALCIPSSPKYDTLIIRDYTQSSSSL

Target: mGluR5 (Homo sapiens, UniProt P41594)
Conditions: mGluR5, Sp. Hs; cited from earlier work

MTEP
Affinity (pKi): 7.8 pKi
